Assay results: patent US20240109885A1, “2,3-DIHYDRO-1H-PYRROLO[3,2-B]PYRIDINE DERIVATIVE, PREPARATION METHOD THEREFOR, AND APPLICATION THEREOF” (Abbisko Therapeutics Co., Ltd, priority 2020, published 2024)

By UniProt entry, the sequences of proteins in these tests, tags left out. Chains listed by the source or under a name are the forms on record and can include a tag or linker.
UniProt P00533, with tags, fused parts or gaps DUP767-769: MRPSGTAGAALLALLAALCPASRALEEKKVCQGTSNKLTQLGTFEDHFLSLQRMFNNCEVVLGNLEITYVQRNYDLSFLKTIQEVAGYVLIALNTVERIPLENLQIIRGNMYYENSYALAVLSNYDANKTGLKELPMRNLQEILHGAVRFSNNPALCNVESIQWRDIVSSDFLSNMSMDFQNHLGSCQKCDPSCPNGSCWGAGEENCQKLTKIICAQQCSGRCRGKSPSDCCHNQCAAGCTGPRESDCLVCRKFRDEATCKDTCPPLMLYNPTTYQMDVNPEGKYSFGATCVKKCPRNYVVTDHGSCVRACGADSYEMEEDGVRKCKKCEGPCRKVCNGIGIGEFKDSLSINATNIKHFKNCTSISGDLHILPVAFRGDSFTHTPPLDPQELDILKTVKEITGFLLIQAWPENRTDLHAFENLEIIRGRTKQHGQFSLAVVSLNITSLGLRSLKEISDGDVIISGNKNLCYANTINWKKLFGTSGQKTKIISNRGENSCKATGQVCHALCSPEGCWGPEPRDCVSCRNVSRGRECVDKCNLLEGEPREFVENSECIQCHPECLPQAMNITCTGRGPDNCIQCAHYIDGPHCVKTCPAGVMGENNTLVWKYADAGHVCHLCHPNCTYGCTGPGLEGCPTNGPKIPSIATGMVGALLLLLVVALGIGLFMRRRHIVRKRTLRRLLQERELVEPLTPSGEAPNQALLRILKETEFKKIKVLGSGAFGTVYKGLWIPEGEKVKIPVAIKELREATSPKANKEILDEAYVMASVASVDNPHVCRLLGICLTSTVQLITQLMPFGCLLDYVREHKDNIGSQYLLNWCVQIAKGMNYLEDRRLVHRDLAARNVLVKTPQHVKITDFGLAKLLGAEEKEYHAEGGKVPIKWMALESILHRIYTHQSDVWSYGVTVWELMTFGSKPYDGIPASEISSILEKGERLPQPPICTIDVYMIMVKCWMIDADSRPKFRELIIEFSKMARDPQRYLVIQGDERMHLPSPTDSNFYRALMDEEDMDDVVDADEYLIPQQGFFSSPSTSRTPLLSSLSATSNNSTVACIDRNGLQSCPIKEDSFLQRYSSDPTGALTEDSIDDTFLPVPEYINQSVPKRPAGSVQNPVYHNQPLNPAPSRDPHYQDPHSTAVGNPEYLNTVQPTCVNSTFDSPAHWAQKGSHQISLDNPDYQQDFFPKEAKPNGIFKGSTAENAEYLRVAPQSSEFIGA
UniProt P00533, with tags, fused parts or gaps DUP768-770: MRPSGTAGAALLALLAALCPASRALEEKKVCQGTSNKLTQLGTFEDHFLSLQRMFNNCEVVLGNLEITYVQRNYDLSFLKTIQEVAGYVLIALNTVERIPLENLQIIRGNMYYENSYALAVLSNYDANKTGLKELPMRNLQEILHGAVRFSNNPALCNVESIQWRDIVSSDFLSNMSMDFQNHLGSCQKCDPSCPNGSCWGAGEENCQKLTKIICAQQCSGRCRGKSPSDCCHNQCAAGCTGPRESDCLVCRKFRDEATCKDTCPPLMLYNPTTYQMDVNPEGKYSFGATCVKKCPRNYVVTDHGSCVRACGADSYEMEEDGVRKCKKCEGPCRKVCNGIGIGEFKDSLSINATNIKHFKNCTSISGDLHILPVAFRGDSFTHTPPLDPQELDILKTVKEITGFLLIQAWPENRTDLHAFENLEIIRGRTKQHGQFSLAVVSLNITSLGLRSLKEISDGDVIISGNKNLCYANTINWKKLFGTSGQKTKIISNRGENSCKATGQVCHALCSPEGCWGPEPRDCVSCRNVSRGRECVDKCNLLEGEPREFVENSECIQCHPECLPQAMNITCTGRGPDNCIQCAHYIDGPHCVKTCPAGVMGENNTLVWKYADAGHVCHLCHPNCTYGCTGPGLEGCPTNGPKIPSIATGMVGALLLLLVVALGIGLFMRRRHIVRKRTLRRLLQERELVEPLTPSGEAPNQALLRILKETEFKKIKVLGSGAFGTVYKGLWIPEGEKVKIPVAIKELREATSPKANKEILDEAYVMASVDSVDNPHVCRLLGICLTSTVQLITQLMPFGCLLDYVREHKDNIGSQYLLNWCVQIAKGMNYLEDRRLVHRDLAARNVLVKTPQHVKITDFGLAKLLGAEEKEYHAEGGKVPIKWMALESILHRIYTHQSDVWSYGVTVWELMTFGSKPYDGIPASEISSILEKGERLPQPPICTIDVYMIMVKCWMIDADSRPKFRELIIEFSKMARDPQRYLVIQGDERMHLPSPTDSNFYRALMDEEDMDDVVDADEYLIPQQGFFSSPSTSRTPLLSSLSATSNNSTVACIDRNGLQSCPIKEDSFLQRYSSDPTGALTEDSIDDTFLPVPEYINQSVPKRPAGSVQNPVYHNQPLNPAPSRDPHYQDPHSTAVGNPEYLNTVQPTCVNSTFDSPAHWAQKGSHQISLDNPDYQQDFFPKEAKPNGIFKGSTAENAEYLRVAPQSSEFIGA

Columns and labels:
[1] = molecular target: Ba/F3 EGFR-V769_D770insASV (Homo sapiens, UniProt P00533, DUP767-769, cells depend on it); assay: Cell proliferation assay (CellTiter-Glo), Ba/F3 EGFR-V769_D770insASV cells; settings: read-out: Ba/F3 EGFR-V769_D770insASV (nM), IC50 of cell proliferation, 72 hrs, CTG assay, * = average of multiple measurements
Description: (§1) I. Cell proliferation assay (i) Reagents and consumables • Fetal bovine serum (FBS) (GBICO, Cat #10099-141); • CellTiter-Glo® Luminescent Cell Viability Assay Kit (Promega, Cat #G7572); • Black transparent flat-bottomed 96-well plate (Corning®, Cat #3603).
(§2) • SpectraMax Multi-Label Microplate Detector MD, 2104-0010A; • CO2 incubator, Thermo Scientific 3100 Series; • Biosafety cabinet, Thermo Scientific, 1300 Series type A2; • Inverted microscope, Olympus, CKX41SF; • Siemens refrigerator KK25E76TI. (iii) Cell lines and culture conditions
(§3) (iv) Experimental procedures 1. Cell culture and seeding: • (1) Cells in the logarithmic growth phase were harvested, and counted using a platelet counter. Cell viability was detected by the trypan blue exclusion assay to ensure that the cell viability was above 90%. • (2) The cell concentration was adjusted to achieve the final density; and 90 μL of the cell suspension was added to the 96-well plate. • (3) The cells were incubated in the 96-well plate overnight at 37° C. in the presence of 5% CO2 with 95% humidity. 2. […] Reading of luminescent signals • (1) The CTG reagent was thawed, and the cell plate was equilibrated to room temperature for 30 min. • (2) An equal volume of CTG solution was added to each well. • (3) The cells were shaken for 5 min on an orbital shaker for lysis. […]

A431 (EGFR-WT) = assay: Cell proliferation assay (CellTiter-Glo), A431 cells; settings: read-out: A431 (EGFR-WT) (nM), IC50 of cell proliferation, 72 hrs, CTG assay, * = average of multiple measurements
Description: as §1, §2, §3

[2] = molecular target: Ba/F3 EGFR-D770-N771ins_SVD (Homo sapiens, UniProt P00533, DUP768-770, cells depend on it); assay: Cell proliferation assay (CellTiter-Glo), Ba/F3 EGFR-D770-N771ins_SVD cells; settings: read-out: Ba/F3 EGFR-D770-N771ins_SVD (nM), IC50 of cell proliferation, 72 hrs, CTG assay, * = average of multiple measurements
Description: as §1, §2, §3

`C=CC(=O)Nc1cc(Nc2ncnc(N3CC(C)(C)c4ncccc43)n2)c(OC)cc1N(C)CCN(C)C` gave a GI50 [1] of 58.6 nM, an IC50 (A431 (EGFR-WT)) of 280 nM and a GI50 [2] of 66.8 nM.
